Reference: the supplement of paper PMC4894684
Counter-ions that a name gives are not always drawn. ± gives the standard deviation of the averaged measurements. For some assays here: This list holds what a sample rich in strong results left over. The list shows a part of the results, in another mix than the full data.

Experiments:
[1] = system: HFF; assay: uninfected host cell viability relative to vehicle control; higher = less host cell toxicity; conditions: 5 µM; 72 h; oxygen 21 %
[2] = system: Toxoplasma gondii RH (in HFF); assay: parasite growth relative to the screen mean (all compounds = 100%); higher = less inhibition of parasite growth; conditions: 5 µM; 72 h; oxygen 21 %
Outline: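 Library compounds (10 mM DMSO stocks) were pin-transferred to 5 µM final onto confluent human foreskin fibroblasts in 96-well plates, then infected within 2 h with RH β-Gal–GFP Toxoplasma (MOI 1:5) and grown 72 h at 21% O2. Parasite number came from a CPRG β-Gal assay against in-plate standard curves. Growth is expressed relative to the screen mean (all compounds = 100%), averaged over two screens. Uninfected host-cell viability was checked by CellTiter-Blue.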
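Throughout, for uninfected host cell viability relative to vehicle control: confluent HFF monolayers, run in parallel with the Toxoplasma growth screen as a host toxicity counterscreen.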

## N/C(=N/CCc1ccc(I)cc1)SCCCc1cnc[nH]1 [Iodophenpropit dihydrobromide]
[1]
  uninfected host cell viability: 82.28 ± 0.62%
[2]
  parasite growth: 109 ± 5.9%
